{"source": "patent US4711245A", "about": "“Sensor for components of a liquid mixture” (Genetics International, Inc., priority 1983, dated 1987)", "key": {"[1]": {"assay": "spectrophotometric measurement (E, cm^-1 M^-1)"}, "[2]": {"assay": "dc cyclic voltammetry of ferrocene derivatives (redox potential)", "format": "physicochemical"}}, "note": "Some compounds may have been tested in ways that are not shown here."}
{"substance": "ferrocene monocarboxylic acid", "values": [{"measurement": "E", "setting": "[1]", "result": 420, "unit": "cm⁻¹ M⁻¹"}, {"measurement": "ΔEp", "setting": "[2]; voltammogram of FIG. 10, reversible one-electron couple", "result": 60, "unit": "mV"}, {"measurement": "Eo/mV vs SCE", "setting": "[2]; vs SCE, pH 7 and 25° C.", "result": 275, "unit": "mV"}, {"measurement": "Eo", "setting": "[2]; vs a standard calomel electrode, phosphate buffer at pH 7.0", "result": 275, "unit": "mV"}]}
